Patent US20220218837A1, “DRUG CONJUGATE” (priority 2018, published 2022)

What was measured:
[1] = tested on: MDA-MB-468 cells (EGFR++/HER2-/CD71+); assay: Cell killing / cell viability, MDA-MB-468 cells; format: cell-based, human
[2] = tested on: HSP27 mRNA; assay: A431 xenograph 'nude' mouse tumor model, HSP27 gene expression in tumors; format: in vivo; conditions: for reduction in HSP27 mRNA/gene expression in the tumors: compared to single dosing of cetuximab-SO1861 or cetuximab-HSP27BNA mono therapies
Description: This scaffold comprising conjugate was tested in a A431 xenograph ‘nude’ mouse tumor model for EGFR-mediated tumor targeted gene silencing activity. Dosings started at day 12 when tumors reached ˜170 mm^3 in size and tumor samples were collected at 72h after the first dosing and analysed for HSP27 gene expression compared to cellular control mRNA expression (reference genes).
Dosing started at day 12 when tumors reached ˜150 mm^3 in size and HSP27 mRNA expression was determined. For this, tumor samples were collected at 72h after the first dosing and analysed for HSP27 gene expression levels compared to cellular control mRNA expression levels (reference genes). […] Dosings started at day 12 when tumors reached ˜150 mm^3 in size and HSP27 mRNA expression was determined. For this, tumor samples were collected at 72h after the first dosing and analysed for HSP27 gene expression levels compared to cellular control mRNA expression levels (reference genes).
Dosings started at day 12 when tumors reached ˜150 mm^3 in size and tumor samples were collected at 72h after the first dosing and analysed for HSP27 gene expression compared to control gene mRNA expression levels (reference genes). […] Compared to the vehicle control tumors, a reduction of 40% HSP27 gene silencing was observed.
Dosing started at day 12 when tumors reached ˜150 mm^3 in size and HSP27 mRNA expression was determined. For this, tumor samples were collected at 72h after the first dosing and analysed for HSP27 gene expression levels compared to cellular control mRNA expression levels (reference genes).

[3] = tested on: JIMT-1 cells (HER2+/-); assay: Cell killing / cell viability, JIMT-1 cells; format: cell-based, human; conditions: titrated + fixed 10 pM CD71mab-saporin

Substance: Cetuximab-Lys-(dendron(-L-SO1861)^4)^4,4: dendron(-L-SO1861)^4 conjugated to lysines of cetuximab
- cell killing activity (words) ([1]; substance alone, no partner): not induced

Substance: cetuximab-(Cys-L-SO1861)^3,9(Lys-L-HSP27BNA)^1,8: cetuximab with SO1861-EMCH on Cys (DAR 3,9) and HSP27BNA via labile linker on Lys (DAR 1,8)
- reduction in HSP27 mRNA/gene expression in the tumors ([2]; 1 dosing of 30 mg/kg, 72h): 40%
- reduction in HSP27 gene expression in the tumors ([2]; 1 dosing of 30 mg/kg, 72h, compared to vehicle control): 25%

Substance: cetuximab-Cys-(SO1861-L-trifunctional linker-L-HSP27BNA)^3′^7
- reduction in HSP27 gene expression in the tumors ([2]; 1 dosing of 25 mg/kg, 72h, compared to the vehicle control tumors): 25%
- reduction in HSP27 gene expression in the tumors ([2]; 1 dosing of 25 mg/kg, tumors sampled 72h after first dosing, compared to single dosing of cetuximab-(Cys-L-SO1861)^3,8 or cetuximab-(Lys-L-HSP27BNA)^4 mono therapies): 40%
- reduction in HSP27 mRNA/gene expression in the tumors ([2]; 1 dosing of 30 mg/kg, 72h): 40%

Substance: cetuximab-Cys-(dendron(-L-SO1861)^4)^3,9: Dendron(-L-SO1861)^4 conjugated to cetuximab via cysteine residues
- IC50 cell killing ([1]; titrated + fixed 10 pM CD71mab-saporin): strong enhancement of the cell killing activity

Substance: trastuzumab-Lys-(dendron(-L-SO1861)^4)^4,7: dendron(-L-SO1861)^4 conjugated to lysines of trastuzumab
- IC50 cell killing [3]: no cell killing activity could be observed
